Values quoted from earlier work, collected in patent publication US20240343692A1 (priority 2021, published 2024).

The chains behind the UniProt entries cited, without tags or fusion partners.
UniProt P41595, whole entry: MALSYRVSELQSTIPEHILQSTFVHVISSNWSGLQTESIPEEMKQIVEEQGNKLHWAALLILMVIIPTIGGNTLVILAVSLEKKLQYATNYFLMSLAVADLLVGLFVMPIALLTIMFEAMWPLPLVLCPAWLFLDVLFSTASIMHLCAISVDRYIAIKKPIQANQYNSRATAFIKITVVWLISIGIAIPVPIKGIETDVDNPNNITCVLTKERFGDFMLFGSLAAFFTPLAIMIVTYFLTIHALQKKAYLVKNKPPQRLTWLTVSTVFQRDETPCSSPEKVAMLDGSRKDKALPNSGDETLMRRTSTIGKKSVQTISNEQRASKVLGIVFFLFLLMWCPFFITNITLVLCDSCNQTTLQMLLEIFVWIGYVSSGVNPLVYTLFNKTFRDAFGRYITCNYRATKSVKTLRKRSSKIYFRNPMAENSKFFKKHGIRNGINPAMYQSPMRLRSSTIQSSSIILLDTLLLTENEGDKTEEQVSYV

Biological target: Serotonin 5-HT2B (Homo sapiens, UniProt P41595)
Settings: read-out: activation potency EC50, Serotonin 5-HT2B; data from ref. 36; cited from earlier work

SMILES: CN(C)CCc1c[nH]c2cccc(O)c12 [Psilocin]
- EC50: > 20 µM
